{"source": "patent US20090317741A1", "about": "“COMPOUND, ACID GENERATOR, RESIST COMPOSITION AND METHOD OF FORMING RESIST PATTERN” (Tokyo Ohka Kogyo Co., Ltd., priority 2006, published 2009)", "assay": "Evaluation of solubility in resist solvents (PGMEA, PGME, EL)", "conditions": "concentration at which the acid generator was completely dissolved", "protocol": "The solution of propylene glycol monomethyl ether acetate (PGMEA), propylene glycol monomethyl ether (PGME), or ethyl lactate (EL) with each compound described above was prepared, while changing the concentration. After the preparation, each solution was stirred, and then the concentration in which each acid generator was completely dissolved was measured."}
{"substance": "di(1-naphthyl)phenylsulfonium nonafluorobutanesulfonate [(B)-2, reference compound]", "values": [{"measurement": "Solubility in EL", "setting": "ethyl lactate", "value": 5, "unit": "% by weight"}, {"measurement": "Solubility in PGMEA", "setting": "propylene glycol monomethyl ether acetate", "value": 2, "unit": "% by weight"}, {"measurement": "Solubility in PGME", "setting": "propylene glycol monomethyl ether", "value": 5, "unit": "% by weight"}]}
